Literature values, collected in PMC7640639 (Journal of medicinal chemistry, 2019).

The chains behind the UniProt entries cited, without tags or fusion partners.
UniProt P21554, whole entry: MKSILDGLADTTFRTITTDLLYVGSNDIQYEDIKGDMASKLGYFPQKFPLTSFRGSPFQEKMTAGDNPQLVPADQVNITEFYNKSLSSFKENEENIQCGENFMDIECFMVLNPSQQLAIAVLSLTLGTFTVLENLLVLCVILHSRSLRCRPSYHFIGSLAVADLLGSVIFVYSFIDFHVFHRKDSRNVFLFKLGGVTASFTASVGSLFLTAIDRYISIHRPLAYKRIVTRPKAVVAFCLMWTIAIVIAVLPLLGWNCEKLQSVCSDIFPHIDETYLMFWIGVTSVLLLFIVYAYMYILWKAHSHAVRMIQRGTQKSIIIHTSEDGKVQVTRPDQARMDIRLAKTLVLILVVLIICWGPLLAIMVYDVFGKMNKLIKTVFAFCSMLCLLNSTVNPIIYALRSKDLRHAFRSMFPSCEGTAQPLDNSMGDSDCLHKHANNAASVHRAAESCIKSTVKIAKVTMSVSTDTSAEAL

Target: hCB1R (Homo sapiens, UniProt P21554)
Details: read-out: Ki hCB1R; cited from earlier work

Cc1ccc(Cn2nc(C(=O)N[C@@H]3C(C)(C)[C@@H]4CC[C@@]3(C)C4)cc2-c2ccc(Cl)c(C)c2)cc1 [SR-144,528]
Ki: 264 nM
